{"sequences": {"note": "Chains of the proteins cited; added tags and fusions are not shown.", "UniProt P0DMV8, whole entry": "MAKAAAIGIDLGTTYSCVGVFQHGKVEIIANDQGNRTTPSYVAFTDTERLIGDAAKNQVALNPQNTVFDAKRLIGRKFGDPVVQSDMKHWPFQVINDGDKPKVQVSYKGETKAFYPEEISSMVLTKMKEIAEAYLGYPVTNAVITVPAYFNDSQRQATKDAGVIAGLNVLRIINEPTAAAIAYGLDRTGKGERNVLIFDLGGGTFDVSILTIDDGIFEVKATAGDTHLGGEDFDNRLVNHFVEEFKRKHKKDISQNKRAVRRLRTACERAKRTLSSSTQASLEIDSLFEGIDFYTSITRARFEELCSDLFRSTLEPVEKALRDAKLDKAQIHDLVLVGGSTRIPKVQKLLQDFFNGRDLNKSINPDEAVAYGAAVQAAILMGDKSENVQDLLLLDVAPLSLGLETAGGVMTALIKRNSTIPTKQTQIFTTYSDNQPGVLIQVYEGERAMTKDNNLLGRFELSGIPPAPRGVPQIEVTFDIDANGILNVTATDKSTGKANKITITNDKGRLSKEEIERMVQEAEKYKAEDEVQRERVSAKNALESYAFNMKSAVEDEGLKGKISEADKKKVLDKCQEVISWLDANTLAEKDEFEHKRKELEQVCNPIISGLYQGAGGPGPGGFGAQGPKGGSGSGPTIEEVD"}, "source": "paper PMC6085657", "about": "“DNA display of fragment pairs as a tool for the discovery of novel biologically active small molecules” (Chemical Science, 2014)", "key": {"[1]": {"molecular_target": "Hsp70 (Homo sapiens, UniProt P0DMV8)", "assay": "SPR affinity measurement, biotinylated compounds immobilized on a streptavidin chip, Hsp70 analyte", "assay_type": "binding", "conditions": "read-out: KD HSP70, compound immobilized on streptavidin chip, values in parentheses have chi2 > 10"}, "[2]": {"molecular_target": "Hsp70-GST (Homo sapiens, UniProt P0DMV8)", "assay": "Microarray-based screen of the focused library against Hsp70-GST (fluorescence, anti-GST DyLight 649)", "conditions": "fluorescence intensity on the microarray, mean of four spots, SD between 5% and 10%; PNA-tagged library member", "source_text": "A microarray pairing 125 biologically validated fragments[11] (FDA-approved drugs, bioactive natural products or fragments thereof) with a library of 500 heterocycles was used as a preliminary screen.[6] The microarray contained 62 500 unique DNA sequences that combinatorially paired both fragment libraries. […] The result from this screen with Hsp70 is shown in Fig. 2, arranged with fragments from the 125-fragment set and 500-fragment set on horizontal and vertical lines, respectively. The recurrence of binding across a line reflects the fitness of a given fragment. Thus, line intensities were used to rank the different fragments. What is interesting is that lines across the library of the 500-fragment set (4B, 24B, 44B, 84B, 124B, …) shared a common structural motif (biaryl-ether; Fig. 2). […] It is noteworthy that this biaryl moiety is part of a previously reported Hsp70 ligand (MAL3-101).[13],[14] […] Although screening fragments as conjugates to a nucleic acid tag restricts their binding mode to a particular orientation (the orientation that will position the linker to the tag toward the outside of the binding pocket), it greatly facilitates the synthesis of the corresponding covalent adduct combining both fragments, as the same chemistry that was used to link the fragments to the tag can be used to covalently pair them. […]"}, "[3]": {"molecular_target": "Hsp90", "assay": "SPR affinity measurement, biotinylated compounds immobilized on a streptavidin chip, Hsp90 analyte", "assay_type": "binding", "conditions": "read-out: KD HSP90, compound immobilized on streptavidin chip, values in parentheses have chi2 > 10"}}, "data": [{"smiles": "CC1=C(CC(=O)NC(CNC(=O)C=Cc2ccc(C)cc2)C(=O)NCCCCC(NC(=O)COCCOCCNC(=O)CCCCC2SCC3NC(=O)NC32)C(N)=O)c2cc(F)ccc2C1=Cc1ccc([S+](C)[O-])cc1", "note": "(stereo not drawn)", "values": [{"measurement": "Kd", "setting": "[1]", "result": 7.65, "unit": "nM"}, {"measurement": "FU microarray HSP70-GST", "setting": "[2]", "result": "28 945 FU"}, {"measurement": "Kd", "setting": "[3]", "result": 27, "unit": "nM"}]}]}
